# Measured values as given in patent US20240124460A1, “METHODS AND COMPOSITIONS FOR TARGETED PROTEIN DEGRADATION” (Ranok Therapeutics (Hangzhou) Co. Ltd., priority 2020, published 2024).
# By UniProt entry, the sequences of proteins in these tests, tags left out.
# UniProt Q13164, whole entry: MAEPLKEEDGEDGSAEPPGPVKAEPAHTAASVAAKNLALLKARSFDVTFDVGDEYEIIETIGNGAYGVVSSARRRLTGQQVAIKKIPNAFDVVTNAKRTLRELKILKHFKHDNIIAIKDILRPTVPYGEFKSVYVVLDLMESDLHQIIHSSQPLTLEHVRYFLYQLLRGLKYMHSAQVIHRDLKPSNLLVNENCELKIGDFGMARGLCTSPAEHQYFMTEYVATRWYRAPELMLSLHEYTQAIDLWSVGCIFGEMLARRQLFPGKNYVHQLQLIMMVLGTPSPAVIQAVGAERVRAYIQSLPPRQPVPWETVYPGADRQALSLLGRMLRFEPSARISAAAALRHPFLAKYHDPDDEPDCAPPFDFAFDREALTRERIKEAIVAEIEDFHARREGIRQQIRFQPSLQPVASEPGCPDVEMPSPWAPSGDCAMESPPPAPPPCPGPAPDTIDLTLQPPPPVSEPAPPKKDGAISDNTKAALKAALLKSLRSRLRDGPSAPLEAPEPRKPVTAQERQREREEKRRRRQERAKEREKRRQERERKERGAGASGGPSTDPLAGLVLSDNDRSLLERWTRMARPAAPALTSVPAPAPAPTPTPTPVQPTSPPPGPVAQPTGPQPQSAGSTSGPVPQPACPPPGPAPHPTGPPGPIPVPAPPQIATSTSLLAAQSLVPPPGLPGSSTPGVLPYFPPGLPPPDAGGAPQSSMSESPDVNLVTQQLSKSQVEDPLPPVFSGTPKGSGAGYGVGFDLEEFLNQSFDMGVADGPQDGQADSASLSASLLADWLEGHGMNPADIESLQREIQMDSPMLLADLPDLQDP
# What was measured:
# [1] = target: T1, HSP90α protein (Homo sapiens, UniProt P07900); assay: HSP90α-binding FP (BODIPY) assay; settings: read-out: HSP90α binding (BODIPY), FP competition with BODIPY-labeled RNK04010
# Method: (§1) Binding of test compounds to HSP90α protein was measured by fluorescent polarization (FP) using the HSP90α (N-terminal) Assay Kit (BPS Bioscience, #50298), following the manufacturer's instructions, except as noted. Fluorescently labeled HSP90-binding compounds, either the provided FITC-geldanamycin (5 nM final concentration) or RNK04010, a triazolone-based HSP90 binding small molecule labeled with BODIPY through a piperazine-phenyl linker (5 nM final concentration) were employed. A 2.5-fold serial dilution of each test compound ranging from 20 μM to 5.2 nM was assayed for binding to HSP90α. After the final step of adding HSP90α protein to each assay well, plates were mixed by brief shaking, incubated at 25° C. for 120 min for FITC-geldanamycin or 300 min for RNK04010, and fluorescence was measured using a PerkinElmer EnVision Plate Reader. Background-subtracted mP values were calculated from raw data and a four-parameter “log[inhibitor] vs. response” curve was fitted and IC50 values (the concentration at which 50% of the maximal inhibition occurs) calculated using GraphPad Prism 7 software.
# [2] = tested on: MV-4-11 human acute myeloid leukemia; assay: MV-4-11 CCK-8 proliferation assay; settings: read-out: MV-4-11 CCK-8, MV-4-11 cells, 72 hr
# Method: (§2) The following cancer cell lines were employed: A549 human lung carcinoma (ATCC, #CCL-185); BT-474 human breast carcinoma (ATCC, #HTB-20); MDA-MB-231 human breast adenocarcinoma (ATCC, #CRM−HTB-26); MDA-MB-468 human breast adenocarcinoma (ATCC, #HTB-132); MV-4-11 human acute myeloid leukemia (ATCC, #CRL-9591); and U-87 MG human glioblastoma (ATCC, #HTB-14). Cell lines were cultured essentially according to ATCC recommendations.
# (§3) Cells were plated in 96-well tissue culture plates at 4,000 cells/well and incubated at 37° C./5% CO2 for 24 hr. 3-fold serial dilutions of each test compound were prepared ranging from 20 μM to 1.02 nM. Cells were then treated with test compounds at various concentrations with a final concentration of 0.5% DMSO/well, and then incubated at 37° C./5% CO2 for 72 hr. 10 μl the cell proliferation detection reagent CCK-8 (Dojindo Molecular Technologies, #CK04) was added to each well and incubated at 37° C./5% CO2 for 3-4 hr and the absorbance at 450 nm measured using an Perkin Elmer EnVision Plate Reader. Compound inhibition of was determined by the following equation and EC50 values (the concentration at which 50% of the maximal inhibition occurs) calculated using GraphPad Prism 7 software:
# (§4) % Inhibition=100−(D−B)/(S−B)*100%. • S: Absorbance of cells treated with DMSO • D: Absorbance of compound-treated cells • B: Absorbance of medium with DMSO without cells
# [3] = tested on: U-87 MG human glioblastoma; assay: U87 MG CCK-8 proliferation assay; settings: read-out: U87MG CCK-8, U-87 MG cells, 72 hr
# Method: as §2, §3, §4
# [4] = target: T2, MAPK7 (Homo sapiens, UniProt Q13164); assay: MAPK7 kinase assay (ADP-Glo)
# Method: The inhibition of MAPK7 kinase activity by test compounds was measured by the ADP-Glo Kinase Assay (Promega, #V6930), following the manufacturer's instructions, except as noted. 3-fold serial dilutions of each test compound were prepared ranging from 50 μM to 2.54 nM. Also, as a positive control, a 4-fold serial dilution of the MAPK7 inhibitor, XMD17-109 (MedChemExpress, #HY-15665) was prepared ranging from 10 μM to 0.04 nM. In brief, in 384-well plates, test compounds were added to the kinase reaction mix containing recombinant MAPK7 protein (Carna Biosciences, #04-146; 20 nM final concentration), myelin basic protein (SignalChem Biotech, #M42-54G; 0.1 mg/ml final concentration) and ATP (340 μM final concentration), then mixed by shaking and incubated with ADP-Glo Reagent and Kinase Detection Reagent. Luminescence was measured on a BioTek plate reader. The % inhibition was calculated using following equation and plotted and IC50 values (the concentration at which 50% of the maximal inhibition occurs) calculated using GraphPad Prism 7 software: […]
# Lumpositive: The average ratio for 10 wells of positive controls (10 μM XMD17-109) across the plate.
# Lumvehicle: The average ratio for 10 wells of negative controls (0.5% DMSO) across the plate.
# [5] = tested on: MDA-MB-468 human breast adenocarcinoma; assay: MDA-MB-468 CCK-8 proliferation assay; settings: read-out: MDA-MB-468 CCK-8; MDA-MB-468 cells, 72 hr; tested form: HCl
# Method: as §2, §3, §4
# [6] = target: T2, MAPK7; assay: MAPK7 Western blot protein degradation assay in U-87 MG cells; settings: 48 hr, tested form: HCl
# Method: U-87 MG human glioblastoma cells were seeded in 6- or 12-well tissue culture plates, and after 1 hr, test compounds were added at various concentrations and incubated at 37° C./5% CO2 for 48 hr. Cells were then washed with cold PBS, aspirated and cold RIPA buffer containing a protease/phosphatase inhibitor cocktail was added to lyse cells. After centrifugation, the total protein concentrations of cell lysates were determined using the BCA protein assay. Samples were normalized for equivalent protein concentrations, 5×SDS-PAGE loading buffer added and denatured at 100° C. for 10 min. 20 μl of each sample/well was loaded on a SDS-PAGE gel and electrophoresed for 20 min at 80 V, then 120 V for 1.5 hr. Gels were then electroblotted to nitrocellulose membranes using a wet-transfer method at 250 mA for 2.5 hr. Membranes were incubated with blocking buffer for 1 hr and washed 3 times with TBST for 5 min. Membranes were then incubated with anti-MAPK7 (anti-ERK5; Cell Signaling Technology, #12950) and anti-3-Actin (Cell Signaling Technology, #3700) monoclonal antibodies diluted in blocking buffer at 4° C. overnight per the manufacturer's recommendations. After washing 3 times, blots were incubated with appropriately labeled secondary antibodies for 1 hr at room temperature and washed again. Fluorescence imaging and quantitation was performed using a LI-COR Odyssey. Results was analyzed using GraphPad Prism 7 software.
# [7] = tested on: MDA-MB-231 human breast adenocarcinoma; assay: MDA-MB-231 CCK-8 proliferation assay; settings: read-out: MDA-MB-231 CCK-8; MDA-MB-231 cells, 72 hr; tested form: HCl
# Method: as §2, §3, §4
# [8] = tested on: ERBB2; assay: ERBB2 (HER2) flow cytometry protein degradation assay in BT-474 cells; settings: DC50, BT-474 cells, 24 hr
# Method: BT-474 human breast carcinoma cells were plated in 24-well tissue culture plates at 250,000 cells/well and incubated at 37° C./5% CO2 for 24 hr. Cells were then treated with test compounds at various concentrations and incubated at 37° C./5% CO2 for 24 hr. To analyze total ERBB2 expression by flow cytometry, cells were detached with trypsin, washed, counted and treated with 10 μl/10^6 cells PE-conjugated, anti-ERBB2 monoclonal antibody (R&D Systems, #FAB1129P) for 30 min at 25° C. in dark. Cells were then washed, resuspended in 200 μl 1% paraformaldehyde and analyzed by flow cytometry. Compound inhibition of was determined by the following equation and DC50 values (the concentration at which 50% of the maximal degradation of ERBB2 occurs) calculated using GraphPad Prism 7 software:
# % Inhibition=100−(D−B)/(S−B)*100%. • S: Fluorescence intensity of cells with antibody • D: Fluorescence intensity of compound-treated cells with antibody • B: Fluorescence intensity of cells without antibody
# [9] = tested on: A549 human lung carcinoma; assay: A549 CCK-8 proliferation assay; settings: read-out: A549 CCK-8, A549 cells, 72 hr
# Method: as §2, §3, §4
# [10] = target: T1, HSP90α protein; assay: HSP90α-binding FP (FITC) assay; settings: read-out: HSP90α binding (FITC); FP competition with FITC-geldanamycin; tested form: TFA
# Method: as §1
# [11] = read-out: MAPK7 kinase, ATP 340 μM, tested form: TFA
Compound,IC50 ([1]; tested form: TFA),EC50 ([2]; tested form: TFA),EC50 ([3]; tested form: TFA),also measured
CCOc1cc(N2CCC(C(=O)NCCOCCOCCOc3ccc(-n4c(O)nnc4-c4cc(C(C)C)c(O)cc4O)cc3)CC2)ccc1Nc1ncc2c(n1)N(S(C)(=O)=O)c1ccccc1C(=O)N2C,< 0.1 µM,< 0.1 µM,> 1 µM,
CCOc1cc(N2CCC(C(=O)N3CCC(COc4ccc(Nc5cc(-n6nc(C(F)(F)F)c7c6CC(C)(C)CC7=O)ccc5C(N)=O)cc4)CC3)CC2)ccc1N(CC)c1ncc2c(n1)N(S(C)(=O)=O)c1ccccc1C(=O)N2C,> 1 µM,> 1 µM,> 1 µM,"IC50 [4, 11]: > 1 µM"
"CCOc1cc(N2CCC(C(=O)N3CCN(Cc4ccc(-n5c(O)nnc5-c5cc(C(C)C)c(O)cc5O)cc4)CC3)CC2)ccc1N(C)c1ncc2c(n1)N(C)c1ccccc1C(=O)N2C [Compound 047, 2-((4-(4-(4-(4-(3-(2,4-dihydroxy-5-isopropylphenyl)-5-hydroxy-4H-1,2,4-triazol-4-yl)benzyl)piperazine-1-carbonyl)piperidin-1-yl)-2-ethoxyphenyl)(methyl)amino)-5,11-dimethyl-5,11-dihydro-6H-benzo[e]pyrimido[5,4-b][1,4]diazepin-6-one]",,,,"IC50 ([1]; tested form: HCl): 0.1 to 1 µM; IC50 ([4]; read-out: MAPK7 kinase, ATP 340 μM, tested form: HCl): > 1 µM; EC50 ([2]; tested form: HCl): < 0.1 µM; EC50 [5]: 0.1 to 1 µM; MAPK7 degradation (30 nM) ([6]; 30 nM): C (< 33% degradation); MAPK7 degradation (100 nM) ([6]; 100 nM): C (< 33% degradation); MAPK7 degradation (300 nM) ([6]; 300 nM): A (>66% degradation); MAPK7 degradation (1000 nM) ([6]; 1000 nM): A (>66% degradation); EC50 [7]: 0.1 to 1 µM; EC50 ([3]; tested form: HCl): 0.1 to 1 µM; ERBB2 degradation ([8]; tested form: HCl): B (DC50 = 100-1000 nM); EC50 ([9]; tested form: HCl): 0.1 to 1 µM"
CCOc1cc(N2CCC(C(=O)N3CCC(CN4CCN(Cc5ccc(-n6c(C(=O)NCC(F)(F)F)nnc6-c6cc(CC)c(O)cc6O)cc5)CC4)CC3)CC2)ccc1Nc1ncc2c(n1)N(S(C)(=O)=O)c1ccccc1C(=O)N2C,0.1 to 1 µM,< 0.1 µM,< 0.1 µM,
CCOc1cc(N2CCC(C(=O)N3CCC(CN4CCN(Cc5ccc(-n6c(O)nnc6-c6ccc(O)cc6O)cc5)CC4)CC3)CC2)ccc1Nc1ncc2c(n1)N(S(C)(=O)=O)c1ccccc1C(=O)N2C,0.1 to 1 µM,0.1 to 1 µM,> 1 µM,
CCOc1cc(N2CCC(C(=O)NCCOCCOc3ccc(-n4c(O)nnc4-c4cc(CC)c(O)cc4O)cc3)CC2)ccc1Nc1ncc2c(n1)N(S(C)(=O)=O)c1ccccc1C(=O)N2C,< 0.1 µM,0.1 to 1 µM,> 1 µM,
CCOc1cc(N2CCC(C(=O)NCCOc3ccc(-n4c(O)nnc4-c4cc(C(C)C)c(O)cc4O)cc3)CC2)ccc1Nc1ncc2c(n1)N(C)c1ccccc1C(=O)N2C,,< 0.1 µM,0.1 to 1 µM,IC50 [10]: 0.1 to 1 µM
CCOc1cc(N2CCC(C(=O)N3CCC(CN4CCN(Cc5ccc(-n6c(O)nnc6-c6cc(C(C)C)c(O)cc6OC)cc5)CC4)CC3)CC2)ccc1N(CC)c1ncc2c(n1)N(C)c1ccccc1C(=O)N2C,> 1 µM,> 1 µM,,"IC50 [4, 11]: > 1 µM"
CCOc1cc(N2CCC(C(=O)NCc3ccc(-n4c(O)nnc4-c4ccc(O)cc4O)cc3)CC2)ccc1Nc1ncc2c(n1)N(C)c1ccccc1C(=O)N2C,> 1 µM,> 1 µM,> 1 µM,ERBB2 degradation ([8]; tested form: TFA): C (DC50 > 1000 nM)
CCOc1cc(N2CCC(C(=O)NCc3ccc(-n4c(O)nnc4-c4ccc(O)cc4O)cc3)CC2)ccc1Nc1ncc2c(n1)N(S(C)(=O)=O)c1ccccc1C(=O)N2C,0.1 to 1 µM,> 1 µM,> 1 µM,
CCOc1cc(N2CCC(C(=O)N3CCC(CN4CCN(Cc5ccc(-n6c(O)nnc6-c6cc(C(C)C)c(O)cc6O)cc5)CC4)CC3)CC2)ccc1Nc1ncc2c(n1)N(S(C)(=O)=O)c1ccccc1C(=O)N2C,< 0.1 µM,< 0.1 µM,0.1 to 1 µM,"IC50 [4, 11]: 0.1 to 1 µM; ERBB2 degradation ([8]; tested form: TFA): B (DC50 = 100-1000 nM); EC50 ([9]; tested form: TFA): 0.1 to 1 µM"
CCNC(=O)c1nnc(-c2cc(CC)c(O)cc2O)n1-c1ccc(CN2CCN(CC3CCN(C(=O)C4CCN(c5ccc(N(CC)c6ncc7c(n6)N(C)c6ccccc6C(=O)N7C)c(OCC)c5)CC4)CC3)CC2)cc1,< 0.1 µM,< 0.1 µM,0.1 to 1 µM,
CCOc1cc(N2CCC(C(=O)N3CCC(COc4ccc(Nc5cc(-n6nc(C(F)(F)F)c7c6CC(C)(C)CC7=O)ccc5C(N)=O)cc4)CC3)CC2)ccc1Nc1ncc2c(n1)N(C)c1ccccc1C(=O)N2C,> 1 µM,> 1 µM,> 1 µM,

# Read-outs that look alike come from different tables or passages of the source.
